Protein sequences, listed by entry. Tags and fused reporters are not part of them.
UniProt P34972, whole entry: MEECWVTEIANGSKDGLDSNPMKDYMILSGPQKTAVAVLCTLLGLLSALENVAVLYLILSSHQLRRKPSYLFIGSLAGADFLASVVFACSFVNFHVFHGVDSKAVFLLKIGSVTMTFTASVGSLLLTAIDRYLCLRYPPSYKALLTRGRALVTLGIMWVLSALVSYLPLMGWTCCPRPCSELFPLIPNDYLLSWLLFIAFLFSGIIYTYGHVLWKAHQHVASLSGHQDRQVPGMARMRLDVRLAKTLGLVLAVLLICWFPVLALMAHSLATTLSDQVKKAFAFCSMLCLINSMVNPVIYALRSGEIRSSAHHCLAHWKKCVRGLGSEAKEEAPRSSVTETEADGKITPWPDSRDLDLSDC

The target in the first experiment is human CB2 receptor (hCB2) (Homo sapiens, UniProt P34972). Put plainly: cell-based.
Conditions: not given
Format: cell-based.
In general, EC50 refers to the concentration giving half of the maximal effect. Lower therefore signals higher potency in that assay. With `CNC(=O)[C@@H](NC(=O)c1nc(-c2ccccc2C(C)C)n2c1CN(C)CCC2)C(C)(C)C` [Compound 403, (S)-N-(3,3-dimethyl-1-(methylamino)-1-oxobutan-2-yl)-3-(2-isopropylphenyl)-8-methyl-6,7,8,9-tetrahydro-5H-imidazo[1,5-a][1,4]diazepine-1-carboxamide], the EC50 is over 10 µM.
Molecule `CNC(=O)c1cc(-c2nc(C(=O)N[C@H](C(=O)NC)C(C)(C)C)c3n2CCCN(C)C3)ccc1F` [Compound 406, (S)-N-(3,3-dimethyl-1-(methylamino)-1-oxobutan-2-yl)-3-(4-fluoro-3-(methylcarbamoyl)phenyl)-8-methyl-6,7,8,9-tetrahydro-5H-imidazo[1,5-a][1,4]diazepine-1-carboxamide] had an EC50 of over 10 µM.

The same experiment, now with this note: agonist or inverse agonist at hCB2.
As to `C=Cc1nc(C(=O)N[C@H](C(=O)NC)C(C)(C)C)c2n1CCCN(C)C2` [Compound 430, (S)-N-(3,3-dimethyl-1-(methylamino)-1-oxobutan-2-yl)-8-methyl-3-vinyl-6,7,8,9-tetrahydro-5H-imidazo[1,5-a][1,4]diazepine-1-carboxamide], the “+/− HCB2” value is recorded as “+”.
Same read-out and setting: the entry for `CNC(=O)[C@@H](NC(=O)c1nc(C2=CCCC2)n2c1CN(C)CCC2)C(C)(C)C` [Compound 456] is “+”; for `CNC(=O)[C@@H](NC(=O)c1nc(CCC(C)(C)C)n2c1CN(C)CCC2)C(C)(C)C` [Compound 488, (S)-N-(3,3-dimethyl-1-(methylamino)-1-oxobutan-2-yl)-3-(3,3-dimethylbutyl)-8-methyl-6,7,8,9-tetrahydro-5H-imidazo[1,5-a][1,4]diazepine-1-carboxamide] it is “+”; for `CNC(=O)[C@@H](NC(=O)c1nc(CCC2CCCCC2)n2c1CN(C)CCC2)C(C)(C)C` [Compound 493, (S)-3-(2-cyclohexylethyl)-N-(3,3-dimethyl-1-(methylamino)-1-oxobutan-2-yl)-8-methyl-6,7,8,9-tetrahydro-5H-imidazo[1,5-a][1,4]diazepine-1-carboxamide] it is “−”.
Turning to `CNC(=O)[C@@H](NC(=O)c1nc(/C=C/CN2CCCC2)n2c1CN(C)CCC2)C(C)(C)C` [Compound 511, (S,E)-N-(3,3-dimethyl-1-(methylamino)-1-oxobutan-2-yl)-8-methyl-3-(3-(pyrrolidin-1-yl)prop-1-enyl)-6,7,8,9-tetrahydro-5H-imidazo[1,5-a][1,4]diazepine-1-carboxamide], the “+/− HCB2” value is “+”.
On the same count and under the same terms, the entry for `Cc1noc([C@@H](NC(=O)c2nc(-c3ccccc3)n3c2CN(C)CCC3)C(C)(C)C)n1` [Compound 521, (S)-N-(2,2-dimethyl-1-(3-methyl-1,2,4-oxadiazol-5-yl)propyl)-8-methyl-3-phenyl-6,7,8,9-tetrahydro-5H-imidazo[1,5-a][1,4]diazepine-1-carboxamide] is “+”.
Consider `CN1CCCn2c(-c3ccc(F)c(Cl)c3)nc(C(=O)N[C@H](C(=O)N(C)C)C(C)(C)C)c2C1` [Compound 558, (S)-3-(3-chloro-4-fluorophenyl)-N-(1-(dimethylamino)-3,3-dimethyl-1-oxobutan-2-yl)-8-methyl-6,7,8,9-tetrahydro-5H-imidazo[1,5-a][1,4]diazepine-1-carboxamide], for which the “+/− HCB2” value was “+”.

For the origin of these results see patent US7517874B2 (priority 2007, dated 2009).
